The values that follow are results of earlier work, collected in PMC3365014, “Specific Recognition of p53 Tetramers by Peptides Derived from p53 Interacting Proteins” (PLoS ONE, 2012).

In this data set the target is p53 NRD. To be noted: full-length S100 proteins.

B1: S100A4: S100 family protein; binding to the NRD much weaker (protein, UniProt P26447 2-101, looked up)
Protein S100-A4: ACPLEKALDVMVSTFHKYSGKEGDKFKLNKSELKELLTRELPSFLGKRTDEAAFQKLMSNLDSNRDNEVDFQEYCVFLSCIAMMCNEFFEGFPDKQPRKK
On to B1, for which the “Kd of binding to the NRD” value is “much weaker”.
